In PubChem BioAssay AID2107 (National Center for Advancing Translational Sciences (NCATS), 2009):
Only a part is listed here, and it is no random draw. Activity calls are given as the source filed them. Calls come from the whole dose curve; as a rule, active = well fitted inhibition curve with a large enough effect; inconclusive = small, poorly fitted or top-dose-only effect, or effect the other way; inactive = flat fitted curve, though single readings scatter.

The chains behind the UniProt entries cited, without tags or fusion partners. Residues count along the entry.
UniProt P06280, 32-429 limits assumed: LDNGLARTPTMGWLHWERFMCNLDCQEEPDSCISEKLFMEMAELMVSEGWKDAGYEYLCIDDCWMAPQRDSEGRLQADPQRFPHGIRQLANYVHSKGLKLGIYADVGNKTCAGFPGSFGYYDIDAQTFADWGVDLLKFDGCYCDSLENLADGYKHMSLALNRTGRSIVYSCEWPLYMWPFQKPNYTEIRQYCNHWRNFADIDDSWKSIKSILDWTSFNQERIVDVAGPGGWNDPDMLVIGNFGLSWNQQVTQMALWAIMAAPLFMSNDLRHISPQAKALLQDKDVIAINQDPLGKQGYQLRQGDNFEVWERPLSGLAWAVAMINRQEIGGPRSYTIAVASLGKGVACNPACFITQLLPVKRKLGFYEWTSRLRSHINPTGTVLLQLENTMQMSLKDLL

molecular target: Alpha-galactosidase A (Homo sapiens) (UniProt P06280); assay: qHTS Assay for Inhibitors and Activators of Human alpha-Galactosidase From Spleen Homogenate; details: 4MU-alpha-Gal fluorescence, 40 min; at 80 µM (top of the series) unless noted;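 note: 0% = enzyme with vehicle and -100% = no enzyme basal signal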
Excerpt: NIH Chemical Genomics Center [NCGC] NIH Molecular Libraries Probe Production Centers Network [MLPCN] MLPCN Grant: R03 MH084842-01 Assay Submitter (PI): Wei Zheng NCGC Assay Overview: Alpha-galactosidase is a homodimeric glycoprotein that hydrolyzes the terminal alpha-galactosyl moieties from glycolipids and glycoproteins. Deficiency of this enzyme results in Fabry Disease with progressive accumulation of globotriaosylceramide and other glycosphingolipids in vascular endothelial cells that causes renal failure, myocardial infarction and stroke, and premature death in patients. It has been reported that the improper folding and trafficking of alpha-galactosidase resulting from genetic mutations may account for a significant number of Fabry patients. […] We optimized this alpha-galactosidase assay in 1536-well plate format for identification of novel small molecule inhibitors or activators with structures other than the sugar analogs in order to develop new pharmacological chaperones. In particular, this assay is directed towards discovering compounds active in more natural setting, tissue homogenate, that may have been missed by screens of the purified enzyme under more stringent conditions.
NCGC Assay Protocol Summary: This is a fluorogenic enzyme assay with 4-methylumbelliferyl-alpha-D-galactopyranoside as the substrate and human spleen homogenate containing alpha-galactosidase as the enzyme preparation. Upon hydrolysis of this fluorogenic substrate, the resulting product, 4-methylumbelliferone (which excites at 365 nm and emits at 440 nm) can be detected by a fluorescence plate reader. Data were normalized to the controls for basal activity (without enzyme) and 100% activity (with enzyme). The AC50 values were determined from concentration-response data modeled with the standard Hill equation. Assay buffer: 50 mM citric acid (titrated with potassium phosphate to pH 5.0), 0.01% Tween-20 (pH 5.0 is an optimal condition for this enzyme assay) 1536-well assay protocol for the alpha-galactosidase from human spleen homogenate: (1) Add 2 ul/well spleen homogenate (1 ug) (2) Add 23 nL compounds in DMSO solution. The final titration was 0.5 nM to 58 uM. (3) Add 2 ul of substrate (1 mM final) (4) Incubate at 37C for 40 min (5) Add 2 ul stop solution (1M NaOH and 1M Glycine mixture, pH 10) (6) Detect the assay plate in a ViewLux plate reader (PerkinElmer) with Ex=365 nm and Em=440nm. Keywords: Alpha-galactosidase, Fabry Disease, pharmacological chaperone, chaperone therapy, high throughput screening, alpha- galactosidase inhibitor, MLSMR, MLSCN, NIH Roadmap, qHTS and NCGC

Compound | activity change, negative = inhibition
Cc1ccc(C)c(NP(C)(=O)Oc2ccccc2)c1 (stereo unspecified) | inactive: 0.744%
CP(=O)(Nc1cccc(Br)c1)Oc1ccccc1 (stereo unspecified) | inactive: 9.37%
Cc1cc(C)cc(OP(C)(=O)Nc2ccccn2)c1 (stereo unspecified) | inactive: 6.15%
CCOC(=O)c1ccc(NP(C)(=O)Oc2cc(C)cc(C)c2)cc1 (stereo unspecified) | inactive: -6.31%
Cc1cc(C)cc(OP(C)(=O)Nc2ccc(C)cc2C)c1 (stereo unspecified) | inactive: -3.62%
COc1ccccc1OP(C)(=O)Nc1cccc(Br)c1 (stereo unspecified) | inactive: 3.72%
CC1=NCCc2c1[nH]c1ccccc21.O=[N+]([O-])c1cc([N+](=O)[O-])c(O)c([N+](=O)[O-])c1 | inactive: -5.88%
O=[N+]([O-])OCC(CO[N+](=O)[O-])(CO[N+](=O)[O-])CO[N+](=O)[O-] | inactive: 10.2%
Cc1ccc([N+](=O)[O-])cc1[N+](=O)[O-] | inactive: -0.672%
O=[N+]([O-])c1cccc([N+](=O)[O-])c1 | inactive: 5.34%
CP(=O)(Nc1ccc(SC(F)(F)F)cc1)Oc1ccccc1 (stereo unspecified) | inactive: 1.86%
CCCOc1ccc(NP(C)(=O)Oc2ccc(Cl)cc2)cc1 (stereo unspecified) | inactive: -7.61%
CN1CCCCC1COC(=O)C1(O)c2ccccc2CCc2ccccc21 (stereo unspecified) | inactive: 8.69%
COc1ccccc1OP(C)(=O)Nc1c(C)cccc1C (stereo unspecified) | inactive: -2.14%
O=[N+]([O-])c1cc([N+](=O)[O-])c(Nc2nnnn2CCO)c([N+](=O)[O-])c1 | inactive: -7%
Cc1nc2ccc3ccccc3c2s1.O=[N+]([O-])c1cc([N+](=O)[O-])c(O)c([N+](=O)[O-])c1 | inactive: 4.58%
CC(C)N(CCCl)C(C)C | inactive: -4.79%
O=[N+]([O-])c1cc([N+](=O)[O-])c(-n2nnc3ccccc32)c([N+](=O)[O-])c1 | inactive: 3.96%
CP(=O)(Nc1ccccn1)Oc1ccc(Cl)cc1 (stereo unspecified) | inactive: -2.36%
CCOC(=O)c1ccc(NP(C)(=O)Oc2ccc(OC)cc2)cc1 (stereo unspecified) | inactive: -4.27%
CCOP(C)(=S)SCC(=O)NC(C)C(=O)O (stereo unspecified) | inactive: 21.4%
CCc1ccc(OP(C)(=O)N2CCN(c3ccc([N+](=O)[O-])cc3)CC2)cc1 (stereo unspecified) | inactive: 3%
CP(=O)(NC(=O)Nc1ccccc1)Oc1ccccc1 (stereo unspecified) | inactive: 5.94%
Cc1cc(C)cc(OP(C)(=O)Nc2ccc(SC(F)(F)F)cc2)c1 (stereo unspecified) | inactive: 0.947%
CP(=O)(Nc1ccc(SC(F)(F)F)cc1)Oc1ccc(Cl)cc1 (stereo unspecified) | inactive: 9.74%
Cc1cccc(C)c1OP(C)(=O)Nc1ccc(SC(F)(F)F)cc1 (stereo unspecified) | inactive: -19.3%
